Measured values reported in patent US20230203003A1, “Notch Inhibitors and Uses Thereof” (StemSynergy Therapeutics, Inc., priority 2020, published 2023).
Like-named read-outs stand apart in the source and are kept apart here.

Chains of the proteins cited; added tags and fusions are not shown. Residues count along the entry.
UniProt P46531, 1754-2555 limits assumed: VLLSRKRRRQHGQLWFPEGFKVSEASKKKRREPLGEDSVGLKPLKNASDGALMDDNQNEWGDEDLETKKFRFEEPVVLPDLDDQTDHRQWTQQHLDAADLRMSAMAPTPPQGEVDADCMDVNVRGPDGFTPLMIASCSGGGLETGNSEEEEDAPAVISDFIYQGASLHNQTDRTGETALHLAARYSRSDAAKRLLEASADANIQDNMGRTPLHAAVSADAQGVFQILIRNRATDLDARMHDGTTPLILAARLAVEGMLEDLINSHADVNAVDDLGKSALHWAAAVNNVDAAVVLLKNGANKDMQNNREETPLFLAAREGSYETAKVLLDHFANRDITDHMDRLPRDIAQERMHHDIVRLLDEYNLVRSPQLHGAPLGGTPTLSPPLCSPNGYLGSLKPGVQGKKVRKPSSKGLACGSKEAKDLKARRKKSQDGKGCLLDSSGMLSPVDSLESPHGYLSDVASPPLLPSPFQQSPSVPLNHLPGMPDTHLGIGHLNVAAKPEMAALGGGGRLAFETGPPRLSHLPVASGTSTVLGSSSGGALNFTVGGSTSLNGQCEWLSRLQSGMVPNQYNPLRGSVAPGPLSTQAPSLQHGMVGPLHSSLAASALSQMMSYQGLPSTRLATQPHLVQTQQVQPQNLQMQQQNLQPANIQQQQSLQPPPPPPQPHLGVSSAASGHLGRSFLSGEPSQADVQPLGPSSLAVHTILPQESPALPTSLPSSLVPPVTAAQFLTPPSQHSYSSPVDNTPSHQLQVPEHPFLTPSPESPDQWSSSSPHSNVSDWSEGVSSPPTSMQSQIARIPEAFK

Experiments:
[1] = test system: OE33 Esophageal Adenocarcinoma cell line; experiment: OE33 Colony Formation Assay; settings: read-out: OE33 Colony Formation Assay EC50; OE33 cells, 200 cells/well, 7 days, CellTiter-Glo
hNotch1ICD = hNotch1ICD (Homo sapiens, UniProt P46531); experiment: Notch1 Reporter Assay (Dox-inducible Notch1-ICD, CSL-responsive luciferase in 293A cells)
Procedure: 293A cells expressing 1) pCMV-Tet-On 3G, 2) pLV[Tet]-Puro-TRE3G>Notch1-ICD, 3) pLV[Tet]-Puro-TRE3G>Notch2-ICD, 4) pLV[Tet]-Puro-TRE3G>Notch3-ICD, and 5) pCSL-RElement-Luc were used. When Doxycycline is added, the Tet-ON gene activates expression of hNotch1ICD, which together with endogenous NTC components binds to CSL responsive elements (pCSL-RElement-Luc) and expresses luciferase. 1 ×× 10^4 cells are plated in 100 µL (96-well format). 24 h later, compounds (10 mM stock in DMSO) are diluted in DMSO to 200X, then added (5 ul into 1 mL) to cell culture media containing 50 ng/mL Dox. This is then added 1:1 to cells. Final DMSO = 0.25%, Dox = 25 ng/mL. After 24 h, media is discarded, and cells are lysed in passive lysis buffer (Promega). Cells are rocked at room temperature for 15 min and then lysate is divided for luciferase assay (Luciferase Assay System, Promega) and cell viability (CellTiter Glo 2.0, Promega). Raw luciferase is normalized to cell viability, and then scaled to DMSO wells. Results are analyzed and IC50′s are determined in GraphPad by nonlinear regression curve fitting (4 parameter) of dose response curves.

[2] = read-out: Notch1 Reporter Assay IC50, 24 h, luciferase normalized to cell viability

EC50 [1] | SMILES | IC50 (hNotch1ICD; [2]) | IC50 (hNotch1ICD; read-out: Notch1 Reporter Assay IC50, 24 h, luciferase normalized to cell viability, tested form: formate)
4.1 µM | CC(C)Cn1c(=O)c(C(=O)Nc2cccc(N3CCN(C)CC3)c2)c(O)c2ccccc21 [560(02)] | 7.7 µM | 
2.3 µM | CC(C)Cn1c(=O)c(C(=O)Nc2cccc(N3CCN(C)CC3)c2)c(O)c2ccccc21 [560(04)] | 9 µM | 
2.3 µM | CC(C)Cn1c(=O)c(C(=O)Nc2cccc(N3CCN(C)CC3)c2)c(O)c2ccccc21 [560(01)] | 12.3 µM | 

Further lines, the compound ahead of its results:

SMILES | EC50 [1] | IC50 (hNotch1ICD; [2]) | IC50 (hNotch1ICD; read-out: Notch1 Reporter Assay IC50, 24 h, luciferase normalized to cell viability, tested form: formate)
O=C(Nc1ncccc1O)c1c(O)c2c(n(Cc3ccco3)c1=O)CCCC2 | 3.4 µM | 12.8 µM | 
CC(C)Cn1c(=O)c(C(=O)Nc2cccc(N3CCN(C)CC3)c2)c(O)c2ccccc21 |  |  | 10.2 µM
CC(C)Cn1c(=O)c(C(=O)Nc2ccc(Cl)cn2)c(O)c2ccccc21 |  | 11.8 µM | 
